The numbers were not newly measured in article PMC10952255, “Solid‐Phase Synthesis and Biological Evaluation of Peptides ADP‐Ribosylated at Histidine” (Angewandte Chemie (Weinheim an Der Bergstrasse, Germany), 2023), which cites them from elsewhere.

The conditions of the data set: quoted without reference; cited from earlier work.

Consider imidazole, for which the pKa is 14.5.

Usually pKa stands for the pH at which an ionisable group is half protonated.
